Results from patent US11666580B2, “Mechanism of resistance to bet bromodomain inhibitors” (Dana-Farber Cancer Institute, Inc., priority 2015, dated 2023).

System: SUM149, SUM149R, SUM159, and SUM159R cells
Assay: Synergy studies (ATPlite, combination indices, isobolograms)
Format: cell-based, human
Settings: summary statement; resistant cells
Method: SUM149, SUM149R, SUM159, and SUM159R cells were seeded in sterile, white, opaque 384-well microtiter plates (Thermo), using an automated dispensing system (BioTek EL406), at 1,000 cells per well in 50 μl of media. Drugs were delivered in DMSO by robotic pin transfer with a JANUS workstation (100 nl) to achieve a matrix of pairwise dose-response incubations of each compound, each pair having eight replicates. Following 72 hours of incubation, ATP levels were determined for treated cells and vehicle controls (ATPlite, PerkinElmer). Data were normalized to vehicle controls. Combination indices were determined using the median-effect principle of Chou and Talalay^49 (CalcuSyn Software). Isobologram plots were generated with GraphPad Prism software. Points represent paired values of drug concentrations assessed for synergism. The diagonal line signifies drug additivity. Points above the line represent antagonistic drug combinations, and those below the line represent synergistic drug combinations. Synergy assays were performed in triplicates and repeated 2-3 times.

`N#CC[C@H](C1CCCC1)n1cc(-c2ncnc3[nH]ccc23)cn1` [INC424] was tested. Which “Synergy with JQ1” value did it give?
Its value is “substantial synergy”.
